Assay results reported in patent US12714676B2, “Compositions and methods for targeted delivery of therapeutics using carriers” (VESSELON, INC., priority 2020, dated 2026).

Test system: MC38 colon cancer tumor
Test: MC38 colon cancer tumor model, tumor growth inhibition (Example 1)
Type: in vivo, mice
Conditions: dosed Day 1, 4, 8, 12; aPD-1 3 mg/kg; IL-2 10,000 IU/animal; eIL-2 groups + US
Procedure: To determine the efficacy of the compositions of the invention, a bolus injection of SonoLeukin (compared to an infusion of rIL-2, e.g., Proleukin), either as a monotherapy or in combination with co-administered aPD-1 was tested for efficacy against tumor growth. Quantities of IL-2 used were provided in a 1 mg sterile sealed vial. For the SonoLeukin, the starting concentration of 1 mg IL-2 was reconstituted using only 0.25 mL of sterile water for injection (SWFI). Imagent microbubbles were reconstituted as per its package insert. Jugular catheters were surgically implanted in a total of 56 animals (8 animals per arm) prior to tumor xenograft inoculation. Treated animals were dosed on Day 1, Day 4, Day 8 and Day 12. Ultrasound (US) device used was a TE7 and P4-2S probe (Mindray North America, New Jersey, USA); settings used were 2.2 MHz frequency, 0.34 mechanical index (MI) during insonation, once every 10 seconds, a microbubble destruct pulse of 1.3 MI lasting 1,100 milliseconds was applied. Total insonation time of 5 minutes per animal was used. […]

Substance: IL-2: recombinant Human IL-2 (GenScript), not encapsulated in microbubbles
- mean tumor growth inhibition rate (versus control Group 1): 8.97%
